# Values of other authors, collected in US8394377B2, “Methods for treating cancer using combination therapy” (The Regents of the University of Colorado, priority 2008, dated 2013).
# What was measured:
# tumor cell lines = tumor cell lines in the presence of human peripheral-blood mononuclear cells; cited from earlier work
# [1] = test system: metastatic, HER-2-overexpressing breast cancers; settings: combined with cytotoxic chemotherapeutics; cited from earlier work
substance,measurement,setting,value
HERCEPTIN: recombinant DNA-derived humanized monoclonal antibody that selectively binds to the extracellular domain of the HER-2 proto-oncogene,antibody-dependent cellular cytotoxicity,tumor cell lines,can induce antibody-dependent cellular cytotoxicity
same,survival,[1],improve survival
